What was measured:
CNT1 [1] = biological target: T1, CNT1 (Rattus norvegicus, UniProt Q62674); assay: inhibition of CNT1-mediated nucleoside (uridine, AZT, ddC) transport in Xenopus oocytes; format: cell-based; conditions: adenosine, cytidine, uridine>>guanosine, inosine
T1 sequence (Q62674 1-648): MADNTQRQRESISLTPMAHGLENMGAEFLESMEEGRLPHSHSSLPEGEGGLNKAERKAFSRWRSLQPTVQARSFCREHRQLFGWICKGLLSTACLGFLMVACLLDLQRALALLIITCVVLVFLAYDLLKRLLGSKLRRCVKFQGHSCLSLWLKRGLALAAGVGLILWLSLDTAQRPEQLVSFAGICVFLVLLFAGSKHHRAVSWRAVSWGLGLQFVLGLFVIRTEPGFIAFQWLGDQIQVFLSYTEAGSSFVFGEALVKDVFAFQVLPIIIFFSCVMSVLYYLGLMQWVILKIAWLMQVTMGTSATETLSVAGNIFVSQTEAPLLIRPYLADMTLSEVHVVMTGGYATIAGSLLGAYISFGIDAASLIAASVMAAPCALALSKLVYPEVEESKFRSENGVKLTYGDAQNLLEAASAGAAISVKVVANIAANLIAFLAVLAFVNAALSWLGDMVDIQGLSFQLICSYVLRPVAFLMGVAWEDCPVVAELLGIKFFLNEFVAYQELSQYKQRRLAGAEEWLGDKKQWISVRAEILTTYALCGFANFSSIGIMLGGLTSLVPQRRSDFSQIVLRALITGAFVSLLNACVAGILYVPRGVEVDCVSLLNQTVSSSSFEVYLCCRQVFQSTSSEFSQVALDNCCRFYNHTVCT
Procedure: (§1) Oocytes were injected with water or RNA transcribed in vitro from the nucleoside transporter cDNA (pQQH1). […] For panels c and d, the permeant concentration was 10 μM and competing nonradioactive nucleosides were present at a concentration of 1 mM.
(§2) Remaining template was removed by digestion with RQ1 DNase. Oocytes were treated with collagenase to remove follicular layers (Huang et al, 1993) and injected with 10 ng of pQQH1 cRNA or water. […] At the end of the incubation, extracellular label was removed by six rapid ice-cold washes in the appropriate transport buffer. Individual oocytes were dissolved in 5% SDS for quantitation of oocyte-associated ^3 H by liquid scintillation counting (LS 6000 IC, Beckman).

CNT1 [2] = biological target: T1, CNT1; conditions: xenopus oocytes, 0.5 h, 10 µM
Procedure: as §1
Oocytes injected with water or in vitro transcribed RNA from pQQH1 were incubated with radiolabeled permanent (10 μM) for 30 min (open columns) or 1 h (hatched columns) at 20° C. Each value represents the mean ±S. E. of 8-10 ooctyes.
as §2

## O=c1ccn([C@@H]2O[C@H](CO)[C@@H](O)[C@H]2O)c(=O)[nH]1 [uridine]
CNT1 [1]
  selective inhibition of uridine and thymidine fluxes (rCNT1): selective inhibition
CNT1 [2]
  expressed: basal flux ratio: > 20,000
